Like-named read-outs stand apart in the source and are kept apart here.
Key:
[1] = biological target: T1, mouse Kv1.2 channels (Mus musculus, UniProt P63141); assay: Block of Kv1.2 K+ current, automated patch-clamp (SyncroPatch 384PE); format: cell-based
T1 construct: expressed in transfected cells; host or cells: L929 (mouse fibroblast) cell line stably expressing mKv1.2, kept under G418 selection

Chains of the proteins cited; added tags and fusions are not shown.
UniProt P63141, whole entry: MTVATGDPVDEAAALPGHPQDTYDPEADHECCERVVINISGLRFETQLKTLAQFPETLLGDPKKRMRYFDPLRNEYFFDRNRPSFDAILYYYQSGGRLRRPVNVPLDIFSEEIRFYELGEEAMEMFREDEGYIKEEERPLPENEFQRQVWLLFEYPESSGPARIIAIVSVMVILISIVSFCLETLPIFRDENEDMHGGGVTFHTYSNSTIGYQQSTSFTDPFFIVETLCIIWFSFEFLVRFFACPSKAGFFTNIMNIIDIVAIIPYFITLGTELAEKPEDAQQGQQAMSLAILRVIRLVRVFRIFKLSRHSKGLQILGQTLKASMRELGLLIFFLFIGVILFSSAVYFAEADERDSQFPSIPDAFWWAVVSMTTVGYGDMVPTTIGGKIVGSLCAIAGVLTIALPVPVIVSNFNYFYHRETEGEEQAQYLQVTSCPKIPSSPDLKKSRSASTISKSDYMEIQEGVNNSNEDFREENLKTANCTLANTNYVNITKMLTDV

[2] = Photo-isomerization kinetics (trans/cis) followed by absorbance under illumination; format: physicochemical; conditions: for Ratio (t1/2 trans → cis / t1/2 cis → trans): fold faster back-switching to trans
[3] = format: physicochemical; conditions: absorbance spectra every 30 min, absorbance at 340 nm
[4] = Thermal stability of the cis isomer in the dark; conditions: after cis induction, followed over 24 h, conjugates in water, absorbance
[5] = ratio of t1/2 values, position 14

With `C#CCNC(=O)c1ccc(/N=N/c2ccc(C(=O)NCc3cn(CC[C@@H]4NC(=O)[C@@H]5CSSC[C@@H]6NC(=O)[C@H](CCCCN)NC(=O)[C@H](CCCCN)NC(=O)[C@H](CC(N)=O)NC(=O)[C@H](CCSC)NC(=O)[C@H](CSSC[C@H](NC(=O)[C@H](CO)NC(=O)[C@@H](NC(=O)[C@H](CC(N)=O)NC(=O)[C@@H](NC(=O)[C@H](Cc7ccccc7)NC(=O)[C@@H]7CCC(=O)N7)[C@@H](C)O)C(C)C)C(=O)N[C@@H]([C@@H](C)O)C(=O)N[C@@H]([C@@H](C)O)C(=O)N[C@@H](CO)C(=O)N[C@@H](CCCCN)C(=O)N[C@@H](CCC(=O)O)C(=O)N5)NC(=O)[C@H](CCCCN)NC(=O)CNC(=O)[C@H](CCCNC(=N)N)NC(=O)[C@H](CO)NC(=O)[C@H]([C@@H](C)O)NC(=O)[C@H](CC(N)=O)NC(=O)[C@H](Cc5c[nH]cn5)NC(=O)[C@H](CC(C)C)NC(=O)[C@H](CCCNC(=N)N)NC(=O)[C@H](CCC(N)=O)NC(=O)[C@H](CSSC[C@@H](C(=O)N[C@@H](Cc5ccc(O)cc5)C(=O)N[C@@H](CO)C(=O)O)NC(=O)[C@H](CCCNC(=N)N)NC6=O)NC(=O)[C@H](C(C)C)NC(=O)[C@H](CO)NC4=O)nn3)cc2)cc1` [ChTx‐Ah^14‐Az1] the “Block of Kv1.2 current at 10 nM” value ([1]; L929-mKv1.2 cells, 10 nM peptide, Az1 conjugate in trans, mean ± spread, n = 7-18) was 37 ± 6%, the “Block of Kv1.2 currents at 100 nM, cis conformer” value ([1]; L929-mKv1.2 cells, 100 nM, cis-favored state (UV illumination), n = 7) was 36 ± 8% and the “Block of Kv1.2 currents at 100 nM, trans conformer” value ([1]; L929-mKv1.2 cells, 100 nM, trans state, n = 11) was 71 ± 2%. For the same compound, the “Cis conformer less potent than trans conformer at 100 nM” value ([1]; from % block of Kv1.2 currents at 100 nM) was 2 fold, the “Reduction in potency of the cis over the trans configuration” value ([1]; ratio of IC50 of cis component to trans IC50, Kv1.2) was 34 fold and the “Loss of potency versus ChTx-Ah14 (fold less potent)” value ([1]; ratio of IC50 values, trans Az1 conjugate vs ChTx-Ah14) was 2.5 fold. For the same compound, the “Ratio (t1/2 trans → cis / t1/2 cis → trans)” value [2] was 4.1, the “Time stable upon incubation with 10 mM GSH” value [3] was “at least 6 h” and the “Time stable upon incubation with 10 mM GSH” value ([3]; listed as ChTx-Ah14-Az1) was over 6 h. For the same compound, the “t1/2 of the cis conformation in the dark (thermal stability)” value [4] was “exceeding 24 h”.
In the case of `CSCC[C@@H]1NC(=O)[C@@H]2CSSC[C@H](NC(=O)[C@H](CO)NC(=O)[C@@H](NC(=O)[C@H](CC(N)=O)NC(=O)[C@@H](NC(=O)[C@H](Cc3ccccc3)NC(=O)[C@@H]3CCC(=O)N3)[C@@H](C)O)C(C)C)C(=O)N[C@@H]([C@@H](C)O)C(=O)N[C@@H]([C@@H](C)O)C(=O)N[C@@H](CO)C(=O)N[C@@H](CCCCN)C(=O)N[C@@H](CCC(=O)O)C(=O)N[C@H]3CSSC[C@H](NC(=O)[C@H](CCCCN)NC(=O)[C@H](CCCCN)NC(=O)[C@H](CC(N)=O)NC1=O)C(=O)N[C@@H](CCCNC(=N)N)C(=O)N[C@H](C(=O)N[C@@H](Cc1ccc(O)cc1)C(=O)N[C@@H](CO)C(=O)O)CSSC[C@H](NC(=O)[C@H](C(C)C)NC(=O)[C@H](CO)NC(=O)[C@H](CCn1cc(CNC(=O)c4ccc(/N=N/c5ccc(C(=O)NCc6cn(CC[C@@H]7NC(=O)[C@@H]8CSSC[C@@H]9NC(=O)[C@H](CCCCN)NC(=O)[C@H](CCCCN)NC(=O)[C@H](CC(N)=O)NC(=O)[C@H](CCSC)NC(=O)[C@H](CSSC[C@H](NC(=O)[C@H](CO)NC(=O)[C@@H](NC(=O)[C@H](CC(N)=O)NC(=O)[C@@H](NC(=O)[C@H](Cc%10ccccc%10)NC(=O)[C@@H]%10CCC(=O)N%10)[C@@H](C)O)C(C)C)C(=O)N[C@@H]([C@@H](C)O)C(=O)N[C@@H]([C@@H](C)O)C(=O)N[C@@H](CO)C(=O)N[C@@H](CCCCN)C(=O)N[C@@H](CCC(=O)O)C(=O)N8)NC(=O)[C@H](CCCCN)NC(=O)CNC(=O)[C@H](CCCNC(=N)N)NC(=O)[C@H](CO)NC(=O)[C@H]([C@@H](C)O)NC(=O)[C@H](CC(N)=O)NC(=O)[C@H](Cc8c[nH]cn8)NC(=O)[C@H](CC(C)C)NC(=O)[C@H](CCCNC(=N)N)NC(=O)[C@H](CCC(N)=O)NC(=O)[C@H](CSSC[C@@H](C(=O)N[C@@H](Cc8ccc(O)cc8)C(=O)N[C@@H](CO)C(=O)O)NC(=O)[C@H](CCCNC(=N)N)NC9=O)NC(=O)[C@H](C(C)C)NC(=O)[C@H](CO)NC7=O)nn6)cc5)cc4)nn1)NC3=O)C(=O)N[C@@H](CCC(N)=O)C(=O)N[C@@H](CCCNC(=N)N)C(=O)N[C@@H](CC(C)C)C(=O)N[C@@H](Cc1c[nH]cn1)C(=O)N[C@@H](CC(N)=O)C(=O)N[C@@H]([C@@H](C)O)C(=O)N[C@@H](CO)C(=O)N[C@@H](CCCNC(=N)N)C(=O)NCC(=O)N[C@@H](CCCCN)C(=O)N2` [ChTx‐Ah^14‐Az1‐Ah^14‐ChTx], the “Ratio (t1/2 trans → cis / t1/2 cis → trans)” value [2] is reported as 16.6, the “t1/2 cis → trans [95% CI]” value ([2]; half isomerization time, illumination 435 nm, 9.5 mW cm−2, conjugates dissolved in water, absorbance) is reported as 2.7 s and the “Reverse-switching to trans faster for the dimer compared to the monomer” value [2, 5] is reported as 5.37 fold. The “Trans to cis isomerization faster for the dimer compared to the monomer” value [2, 5] was 1.34 fold and the “t1/2 of the cis conformation in the dark (thermal stability)” value [4] was “exceeding 24 h”.

Reference: paper PMC12051786, “Photoisomerization of Azobenzene‐Extended Charybdotoxin for the Optical Control of Kv1.2 Potassium Channel Activity” (Angewandte Chemie (International Ed. in English), 2025)
